Data published in ChEMBL document CHEMBL1132937, “Protease inhibitors: synthesis of potent bacterial collagenase and matrix metalloproteinase inhibitors incorporating N-4-nitrobenzylsulfonylglycine hydroxamate moieties” (J Med Chem, 2000).

Protein sequences, listed by entry. Tags and fused reporters are not part of them. Lines headed by an entry give the natural chain unless they say otherwise; changes in a name come on top.
UniProt P14780: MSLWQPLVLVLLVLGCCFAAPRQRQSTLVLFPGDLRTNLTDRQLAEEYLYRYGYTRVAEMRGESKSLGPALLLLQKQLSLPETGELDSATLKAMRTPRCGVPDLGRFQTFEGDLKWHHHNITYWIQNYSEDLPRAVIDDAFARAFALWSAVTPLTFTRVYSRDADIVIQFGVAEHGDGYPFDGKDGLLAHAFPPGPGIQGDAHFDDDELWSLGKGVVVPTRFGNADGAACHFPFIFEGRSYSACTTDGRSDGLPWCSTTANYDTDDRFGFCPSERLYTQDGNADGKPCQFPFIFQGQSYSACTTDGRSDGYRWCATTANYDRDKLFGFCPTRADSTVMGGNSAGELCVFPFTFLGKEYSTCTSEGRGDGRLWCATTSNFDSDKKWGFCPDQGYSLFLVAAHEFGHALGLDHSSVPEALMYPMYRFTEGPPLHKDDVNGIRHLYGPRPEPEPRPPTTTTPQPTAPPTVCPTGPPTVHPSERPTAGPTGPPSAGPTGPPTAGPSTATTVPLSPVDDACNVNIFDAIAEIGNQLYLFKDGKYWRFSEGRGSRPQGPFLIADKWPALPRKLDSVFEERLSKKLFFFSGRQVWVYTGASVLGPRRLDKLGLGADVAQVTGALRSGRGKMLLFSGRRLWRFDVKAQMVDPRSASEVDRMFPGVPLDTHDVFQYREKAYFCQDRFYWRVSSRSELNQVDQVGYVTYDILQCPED
UniProt P08253: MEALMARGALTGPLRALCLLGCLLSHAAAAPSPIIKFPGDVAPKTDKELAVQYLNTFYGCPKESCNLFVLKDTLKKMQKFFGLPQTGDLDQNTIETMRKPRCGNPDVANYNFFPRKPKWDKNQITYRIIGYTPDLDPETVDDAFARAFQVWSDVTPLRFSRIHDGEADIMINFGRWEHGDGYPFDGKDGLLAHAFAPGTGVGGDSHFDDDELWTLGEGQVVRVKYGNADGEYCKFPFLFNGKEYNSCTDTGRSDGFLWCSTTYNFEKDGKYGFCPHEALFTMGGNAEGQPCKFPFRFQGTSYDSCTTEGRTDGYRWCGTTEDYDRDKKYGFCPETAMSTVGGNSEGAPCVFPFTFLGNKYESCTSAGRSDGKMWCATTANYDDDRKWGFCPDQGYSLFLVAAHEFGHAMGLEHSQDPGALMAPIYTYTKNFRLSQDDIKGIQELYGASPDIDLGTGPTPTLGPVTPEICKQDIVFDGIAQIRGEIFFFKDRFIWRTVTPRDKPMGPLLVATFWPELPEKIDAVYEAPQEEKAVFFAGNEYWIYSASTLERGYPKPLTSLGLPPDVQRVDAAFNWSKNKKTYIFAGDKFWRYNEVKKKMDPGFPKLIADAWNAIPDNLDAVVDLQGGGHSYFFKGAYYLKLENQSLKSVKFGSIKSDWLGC
UniProt P22894: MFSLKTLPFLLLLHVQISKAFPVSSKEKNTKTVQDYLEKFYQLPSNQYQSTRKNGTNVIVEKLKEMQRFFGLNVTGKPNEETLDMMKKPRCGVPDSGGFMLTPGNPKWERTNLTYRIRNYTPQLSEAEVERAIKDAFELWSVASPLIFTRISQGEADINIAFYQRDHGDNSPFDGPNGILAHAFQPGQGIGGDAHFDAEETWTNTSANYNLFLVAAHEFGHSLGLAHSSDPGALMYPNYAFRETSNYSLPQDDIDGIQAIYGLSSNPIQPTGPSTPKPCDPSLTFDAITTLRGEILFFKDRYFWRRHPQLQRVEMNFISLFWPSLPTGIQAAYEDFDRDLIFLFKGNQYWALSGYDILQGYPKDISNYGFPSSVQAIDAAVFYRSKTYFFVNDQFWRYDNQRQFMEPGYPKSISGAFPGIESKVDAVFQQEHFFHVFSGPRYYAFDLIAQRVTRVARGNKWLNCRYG

Experiments:
[1] = target: Matrix metalloproteinase-9 (Homo sapiens, UniProt P14780)
Interstitial collagenase = target: T1, Interstitial collagenase (Homo sapiens, UniProt P03956)
T1 sequence (P03956 whole entry): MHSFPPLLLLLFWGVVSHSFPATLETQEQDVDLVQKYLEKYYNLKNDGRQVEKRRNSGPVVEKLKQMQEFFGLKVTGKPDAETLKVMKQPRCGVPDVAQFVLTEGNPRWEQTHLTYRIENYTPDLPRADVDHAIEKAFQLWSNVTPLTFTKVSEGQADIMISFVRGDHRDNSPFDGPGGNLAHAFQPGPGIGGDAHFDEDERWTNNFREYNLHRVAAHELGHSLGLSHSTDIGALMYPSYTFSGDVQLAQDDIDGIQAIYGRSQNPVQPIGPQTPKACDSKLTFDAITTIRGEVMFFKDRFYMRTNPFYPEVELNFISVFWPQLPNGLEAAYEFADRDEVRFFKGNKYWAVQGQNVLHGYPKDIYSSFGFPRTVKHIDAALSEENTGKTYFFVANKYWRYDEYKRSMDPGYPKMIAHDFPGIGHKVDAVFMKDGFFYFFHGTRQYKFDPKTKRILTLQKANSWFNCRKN

[2] = target: 72 kDa type IV collagenase (Homo sapiens, UniProt P08253)
Neutrophil collagenase = Neutrophil collagenase (Homo sapiens, UniProt P22894)

| SMILES | Ki [1] | Ki (Interstitial collagenase) | Ki [2] | Ki (Neutrophil collagenase) |
| --- | --- | --- | --- | --- |
| Cc1ccc(S(=O)(=O)NC(=O)Nc2ccc(S(=O)(=O)N(CC(=O)NO)Cc3ccc([N+](=O)[O-])cc3)cc2)cc1 | 0.5 nM | 55 nM | 0.7 nM | 1.2 nM |
| O=C(CN(Cc1ccc([N+](=O)[O-])cc1)S(=O)(=O)c1cccc([N+](=O)[O-])c1)NO | 8 nM | 18 nM | 12 nM | 10 nM |
